Data: paper PMC7744439 (European journal of medicinal chemistry, 2020)

Biological target: T1, HDAC6 (Homo sapiens, UniProt Q9UBN7)
T1 sequence (Q9UBN7 1-1215): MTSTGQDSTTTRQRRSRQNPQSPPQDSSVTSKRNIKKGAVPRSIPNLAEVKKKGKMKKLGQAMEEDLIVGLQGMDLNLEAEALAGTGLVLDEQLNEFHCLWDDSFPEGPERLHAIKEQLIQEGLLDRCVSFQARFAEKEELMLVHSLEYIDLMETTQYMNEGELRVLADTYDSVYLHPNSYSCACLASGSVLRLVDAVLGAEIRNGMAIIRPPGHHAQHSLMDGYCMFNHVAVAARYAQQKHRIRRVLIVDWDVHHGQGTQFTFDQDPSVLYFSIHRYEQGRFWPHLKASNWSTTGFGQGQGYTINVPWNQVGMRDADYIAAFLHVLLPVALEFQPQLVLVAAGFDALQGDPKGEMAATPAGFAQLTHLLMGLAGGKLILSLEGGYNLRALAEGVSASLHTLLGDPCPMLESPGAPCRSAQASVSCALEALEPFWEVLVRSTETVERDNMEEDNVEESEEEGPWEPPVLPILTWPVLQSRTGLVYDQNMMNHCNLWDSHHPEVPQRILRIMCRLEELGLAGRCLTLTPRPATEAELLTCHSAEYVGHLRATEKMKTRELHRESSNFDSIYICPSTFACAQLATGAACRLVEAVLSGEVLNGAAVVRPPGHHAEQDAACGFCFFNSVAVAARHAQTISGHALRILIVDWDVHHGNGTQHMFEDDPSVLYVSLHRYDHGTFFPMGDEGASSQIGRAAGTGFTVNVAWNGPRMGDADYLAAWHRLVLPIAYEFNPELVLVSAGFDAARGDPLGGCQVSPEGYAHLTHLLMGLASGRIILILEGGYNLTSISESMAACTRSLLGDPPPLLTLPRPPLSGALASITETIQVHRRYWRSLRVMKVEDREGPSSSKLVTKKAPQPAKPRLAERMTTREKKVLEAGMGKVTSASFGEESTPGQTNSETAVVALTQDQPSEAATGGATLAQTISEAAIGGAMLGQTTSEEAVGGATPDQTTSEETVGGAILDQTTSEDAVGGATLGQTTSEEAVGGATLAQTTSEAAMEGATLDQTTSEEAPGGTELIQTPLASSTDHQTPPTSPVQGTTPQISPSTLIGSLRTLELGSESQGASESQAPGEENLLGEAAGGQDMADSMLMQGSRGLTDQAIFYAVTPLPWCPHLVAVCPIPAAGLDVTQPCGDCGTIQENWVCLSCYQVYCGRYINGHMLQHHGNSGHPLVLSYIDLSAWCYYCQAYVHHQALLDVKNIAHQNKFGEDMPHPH
Test: HDAC6 enzymatic inhibition
Format: biochemical
Details: text prints -folds

Which “SI, HDAC1/6 selectivity index” value does the source give for `CN(C)c1ccc(C(=O)NCCCCCNC(=O)CS)cc1` [Compound 20] here?
The value was 9.8.
